Drawing on patent US5852014A, “Condensed indole derivatives as 5HT4 -receptor antagonists” (SmithKline Beecham p.l.c., priority 1992, dated 1998), this text covers Kd for 1 compound.

Protein sequences, listed by entry. Tags and fused reporters are not part of them. Residues count along the entry.
UniProt Q6Q253, 1-402: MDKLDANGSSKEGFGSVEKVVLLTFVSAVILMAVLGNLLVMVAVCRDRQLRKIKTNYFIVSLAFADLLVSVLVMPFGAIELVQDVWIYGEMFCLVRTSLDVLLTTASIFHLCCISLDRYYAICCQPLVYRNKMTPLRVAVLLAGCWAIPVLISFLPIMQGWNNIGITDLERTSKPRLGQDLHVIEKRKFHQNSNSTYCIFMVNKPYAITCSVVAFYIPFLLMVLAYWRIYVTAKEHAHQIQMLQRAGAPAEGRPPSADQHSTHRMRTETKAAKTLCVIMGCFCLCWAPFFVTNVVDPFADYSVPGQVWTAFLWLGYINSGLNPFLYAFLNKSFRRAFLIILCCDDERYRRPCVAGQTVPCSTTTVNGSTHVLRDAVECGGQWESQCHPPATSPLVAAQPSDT

This experiment concerns the target piglet hippocampal 5-HT4 receptors (Sus scrofa, UniProt Q6Q253). The experiment is described as follows: Binding to piglet hippocampal 5-HT4 receptors (125I-SB-207710). The note with it: piglet hippocampal membranes; n=4.

The compound `CCCCN1CCC(COC(=O)c2cc(I)c(N)c3c2OCCO3)CC1` [SB-207710] returned a Kd of 0.086 ± 0.011 nM.
